Earlier results on one molecule are cited in patent US20150374767A1, “Treatment of Cancer” (priority 2013, published 2015).

Chains of the proteins cited; added tags and fusions are not shown. Residues count along the entry.
UniProt P17948, 27-1338: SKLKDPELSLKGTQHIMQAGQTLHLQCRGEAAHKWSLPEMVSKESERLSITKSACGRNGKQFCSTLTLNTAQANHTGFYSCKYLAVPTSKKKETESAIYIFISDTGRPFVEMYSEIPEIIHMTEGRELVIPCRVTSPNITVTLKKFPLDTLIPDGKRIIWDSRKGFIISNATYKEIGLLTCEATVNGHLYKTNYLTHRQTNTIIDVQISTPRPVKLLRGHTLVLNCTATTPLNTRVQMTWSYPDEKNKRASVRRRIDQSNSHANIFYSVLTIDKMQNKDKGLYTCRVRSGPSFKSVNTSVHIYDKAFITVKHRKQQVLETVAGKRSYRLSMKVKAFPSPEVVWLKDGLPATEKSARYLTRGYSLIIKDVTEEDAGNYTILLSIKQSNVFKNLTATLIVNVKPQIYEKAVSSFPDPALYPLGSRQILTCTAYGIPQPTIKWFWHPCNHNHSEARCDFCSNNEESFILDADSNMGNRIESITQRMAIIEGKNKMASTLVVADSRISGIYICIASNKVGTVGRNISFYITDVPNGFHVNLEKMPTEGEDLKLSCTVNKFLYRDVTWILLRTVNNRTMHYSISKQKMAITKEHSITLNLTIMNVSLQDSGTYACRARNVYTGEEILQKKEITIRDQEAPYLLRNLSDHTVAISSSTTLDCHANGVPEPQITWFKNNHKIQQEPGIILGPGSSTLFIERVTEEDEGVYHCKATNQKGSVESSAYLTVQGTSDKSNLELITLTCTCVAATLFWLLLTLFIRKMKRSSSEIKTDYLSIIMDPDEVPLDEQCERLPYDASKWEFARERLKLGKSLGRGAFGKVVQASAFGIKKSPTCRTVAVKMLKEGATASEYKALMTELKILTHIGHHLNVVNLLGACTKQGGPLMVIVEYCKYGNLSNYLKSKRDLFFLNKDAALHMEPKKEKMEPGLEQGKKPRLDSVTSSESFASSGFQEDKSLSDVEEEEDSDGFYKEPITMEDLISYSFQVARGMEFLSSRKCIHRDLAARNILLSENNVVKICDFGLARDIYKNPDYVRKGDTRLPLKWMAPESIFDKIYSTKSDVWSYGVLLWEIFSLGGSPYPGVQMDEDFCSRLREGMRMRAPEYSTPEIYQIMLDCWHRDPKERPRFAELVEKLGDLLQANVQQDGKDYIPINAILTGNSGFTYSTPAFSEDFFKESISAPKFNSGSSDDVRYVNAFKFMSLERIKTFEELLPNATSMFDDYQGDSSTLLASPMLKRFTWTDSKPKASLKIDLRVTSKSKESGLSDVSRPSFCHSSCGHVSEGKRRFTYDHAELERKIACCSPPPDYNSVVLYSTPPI

In general, pIC50 refers to the IC50 on a negative log10 scale, so that one unit is a factor of ten.

The target in the series is VEGFR1 (Homo sapiens, UniProt P17948). The following applies: cited from earlier work.

pIC50: −log10 of the molar value. Where a name gives a salt, the structure may show the parent alone.

For the molecule `COc1cc2ncnc(Nc3ccc(Cl)cc3F)c2cc1OC` [ZM 306416, 4-[(4′-Chloro-2′-fluoro)phenylamino]-6,7-dimethoxyquinazoline hydrochloride], the pIC50 is 4.48.
